The subject of this data set is rhesus monkeys. Conditions: both, rhesus monkey, in vivo.

The results in this text go back to paper PMC9371589 (Behavioural pharmacology, 2022).

As to buprenorphine, the “maximum number of infusions” value was found to be 12.4 ± 4.8 infusions.
